This assay addresses T1, DPP-4 (manufactured by Sigma, derived from porcine kidney) (Sus scrofa, UniProt P22411).
T1 construct: derived from porcine kidney; purchased Sigma; host or cells: porcine kidney (tissue-derived)
Briefly: DPP-4 inhibition rate and IC50 measurement, fluorescence of AMC freed from Gly-Pro-MCA. In kind it is biochemical. The following applies: for inhibition at 350 µg/mL: sample 0.35 mg/ml, substrate Gly-Pro-MCA, pH 7.5, 37° C., read-out: Inhibition rate (%) at 0.35 mg/ml time; for IC50: sample concentration changed between 0.001 and 7.2 μmol/ml. As to the method:
A sample liquid 35 μl obtained by dissolving a sample 1 mg in 50 mM tris-hydrochloric acid buffer (pH 7.5) 1 ml and DPP-4 (manufactured by Sigma, derived from porcine kidney; 8.6 mU/ml) 15 μl that had been dissolved in 50 mM tris-hydrochloric acid buffer (pH 7.5) were mixed in a microtiter plate well (manufactured by NUNC, trade name “237015”) and incubated at 37° C. for 10 minutes.
Thereto, 50 μl of a substrate solution (one obtained by dissolving glycyl-Pro-4-methylcoumarin-7-amide (Gly-Pro-MCA) in 50 mM tris-hydrochloric acid buffer (pH 7.5) so as to be 10 μM) that had in advance heated to and kept at 37° C. was added, mixed, and allowed to react at 37° C. for 20 minutes.
The fluorescence intensity of 7-amino-4-methylcoumarin (AMC) that was freed by DPP-4 was measured with time by a microplate reader type fluorescence detector (manufactured by Corona Electric Co., Ltd., trade name “SH-9000”). Note that the measurement wavelength was an excitation wavelength of 380 nm and a measurement wavelength of 460 nm. Note that one obtained by using the same amount of 50 mM tris-hydrochloric acid buffer (pH 7.5) in replace of the sample was used as a control; and the fluorescence intensity thereof was measured.
The activity of DPP-4 was expressed by an average gradient of change in the amount of the fluorescence intensity during the reaction time; and, as for DPP-4 inhibition rate, difference obtained by, with the control as 100%, subtracting the activity of the sample from the above-mentioned control was calculated as an inhibition rate (%).
In accordance with the above method of measuring a DPP-4 inhibition rate, sample concentration was changed between 0.001 and 7.2 μmol/ml to obtain the inhibition rate, thereby calculating the 50% inhibitory concentration (IC50 value) of the activity of DPP-4.

The chains behind the UniProt entries cited, without tags or fusion partners. Where a name states a change or a piece, a line headed by the entry shows the natural chain unless it says otherwise.
UniProt P22411: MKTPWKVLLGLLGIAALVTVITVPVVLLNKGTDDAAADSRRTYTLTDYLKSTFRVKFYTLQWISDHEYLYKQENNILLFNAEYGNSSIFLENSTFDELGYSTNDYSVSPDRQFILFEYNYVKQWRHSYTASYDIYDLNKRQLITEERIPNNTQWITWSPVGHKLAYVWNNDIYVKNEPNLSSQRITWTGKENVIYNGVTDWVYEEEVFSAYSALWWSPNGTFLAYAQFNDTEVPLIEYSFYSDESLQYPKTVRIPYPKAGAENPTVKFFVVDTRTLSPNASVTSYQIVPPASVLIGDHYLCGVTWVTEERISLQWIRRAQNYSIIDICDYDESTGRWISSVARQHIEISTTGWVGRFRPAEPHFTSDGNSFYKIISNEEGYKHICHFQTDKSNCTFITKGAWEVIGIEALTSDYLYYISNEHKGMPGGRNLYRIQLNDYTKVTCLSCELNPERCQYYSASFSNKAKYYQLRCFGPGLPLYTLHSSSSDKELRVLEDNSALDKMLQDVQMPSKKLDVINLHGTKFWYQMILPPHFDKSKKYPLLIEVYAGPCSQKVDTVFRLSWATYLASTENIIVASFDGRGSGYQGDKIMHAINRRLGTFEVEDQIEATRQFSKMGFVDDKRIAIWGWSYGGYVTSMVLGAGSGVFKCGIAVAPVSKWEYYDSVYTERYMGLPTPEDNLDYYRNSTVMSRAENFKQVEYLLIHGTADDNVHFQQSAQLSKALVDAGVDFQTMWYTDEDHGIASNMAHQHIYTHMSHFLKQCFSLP

Like-named read-outs stand apart in the source and are kept apart here.

Take `NCC(=O)N1CCC[C@H]1C(=O)N1CCC[C@H]1C(=O)O` [Comparative Example 3, Gly-Pro-Pro, reference compound]: for the setting “Table 1”, the inhibition at 350 µg/mL is 10.2% and half-maximal inhibition (IC50) required 78200 µM.
Taken in the same sequence, the figures for `CC(C)[C@H](NC(=O)[C@@H]1CCCN1C(=O)CN)C(=O)O` [Example 7, Gly-Pro-Val] were 76.5% and 370 µM.
Taken in the same sequence, the figures for `NCC(=O)N1CCC[C@H]1C(=O)N[C@@H](CCC(N)=O)C(=O)O` [Example 8, Gly-Pro-Gln] were 80.2% and 310 µM.
Take `CC(C)C[C@H](N)C(=O)N1CCC[C@H]1C(=O)NCC(=O)O` [Example 17, Leu-Pro-Gly]: the IC50 (commonly the concentration that inhibits the measured activity by half) (Table 2) came to 50 µM.
For `C[C@H](N)C(=O)N1CCC[C@H]1C(=O)NCC(=O)O` [Example 19, Ala-Pro-Gly], where the note is “Table 2”, the inhibition at 350 µg/mL is 98.7% and the IC50 was 30 µM.

Values taken from patent publication US9340579B2, “DPP-4 inhibitor” (NIPPI, INCORPORATED, priority 2011, dated 2016).
